Values quoted from earlier work, collected in paper PMC5049785, “Characterization of Novel Antimalarial Compound ACT-451840: Preclinical Assessment of Activity and Dose–Efficacy Modeling” (PLoS Medicine, 2016).

Test system: P. falciparum strain 3D7 (MR4)
Parameters: method as in PMID 16735432
Conditions: 10 x IC50; cited from earlier work

SMILES: CCN(CC)CCCC(C)Nc1ccnc2cc(Cl)ccc12 (stereo not shown) [Chloroquine, chloroquine]
- parasite clearance time to kill 99.9% of the initial population: 32 h
